One may read the EC50 as the concentration that produces a half-maximal response.

The chains behind the UniProt entries cited, without tags or fusion partners. Residues count along the entry.
UniProt O88275, 238-503 limits assumed: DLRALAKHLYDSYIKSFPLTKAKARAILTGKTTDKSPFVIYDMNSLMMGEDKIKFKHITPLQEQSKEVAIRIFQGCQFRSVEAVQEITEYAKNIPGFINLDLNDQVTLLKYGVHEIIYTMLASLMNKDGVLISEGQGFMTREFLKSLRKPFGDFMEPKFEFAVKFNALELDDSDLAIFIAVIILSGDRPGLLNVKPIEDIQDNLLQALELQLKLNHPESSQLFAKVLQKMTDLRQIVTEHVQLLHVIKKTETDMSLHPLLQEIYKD

Like-named read-outs stand apart in the source and are kept apart here. A value given as a limit tells only on which side of the number the result lay.

The assay addresses T1, rat PPARγ (Rattus norvegicus, UniProt O88275).
T1 construct: expressed in transfected cells; host or cells: CV-1
Nature of the assay: GAL4-PPAR chimera transactivation assay in CV-1 cells at 10% or 0.1% serum (Example 4). The format is cell-based. As to conditions: read-out: GAL4-chimera (rat) EC50 (μM) hPPARγ.

With `Cc1cc(SCc2sc(-c3ccc(C(F)(F)F)cc3)nc2C)ccc1OCC(=O)O` [GW-501516], the EC50 is, setting by setting: (0.1% serum) greater than 10 µM; (10% serum) greater than 10 µM.

Values taken from patent publication US20110092517A1, “Use of PPAR Delta Ligands for the Treatment or Prevention of Inflammation or Energy Metabolism/Production Related Diseases” (Cerenis Therapeutics S.A. & Nippon Chemiphar Co., Ltd., priority 2009, published 2011).
